Experimental findings from ChEMBL document CHEMBL5143569 (Eur J Med Chem, 2022) are described below.

Sequences of proteins named here, by UniProt entry; tags and fusion partners are left off.
UniProt Q06124, whole entry: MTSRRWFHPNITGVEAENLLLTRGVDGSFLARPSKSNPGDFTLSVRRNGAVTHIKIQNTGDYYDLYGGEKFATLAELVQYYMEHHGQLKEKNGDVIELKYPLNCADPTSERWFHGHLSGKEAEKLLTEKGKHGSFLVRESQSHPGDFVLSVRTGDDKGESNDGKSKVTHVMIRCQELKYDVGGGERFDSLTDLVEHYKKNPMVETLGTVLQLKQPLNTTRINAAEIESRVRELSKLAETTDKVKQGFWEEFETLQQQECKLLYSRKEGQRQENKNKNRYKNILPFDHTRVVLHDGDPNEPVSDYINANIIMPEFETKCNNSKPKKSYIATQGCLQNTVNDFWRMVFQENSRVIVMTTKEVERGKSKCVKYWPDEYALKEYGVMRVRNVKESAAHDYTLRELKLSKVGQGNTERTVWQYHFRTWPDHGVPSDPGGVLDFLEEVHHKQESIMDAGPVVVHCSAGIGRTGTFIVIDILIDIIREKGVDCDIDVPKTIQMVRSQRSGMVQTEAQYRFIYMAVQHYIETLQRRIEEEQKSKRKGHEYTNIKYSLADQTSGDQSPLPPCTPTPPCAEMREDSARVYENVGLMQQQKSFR

Usually IC50 stands for the concentration needed to halve the response being measured. High values mean lower potency, low ones higher potency.

The assay concerns the target Tyrosine-protein phosphatase non-receptor type 11 (Homo sapiens, UniProt Q06124).

On to `NCC1CCN(c2cnc(-c3cccc(Cl)c3Cl)c(N)n2)CC1`, for which the IC50 is above 10 µM.
